Key:
[1] = molecular target: T1, Nuclear receptor subfamily 2 group C member 2 (Homo sapiens, UniProt P49116); assay: Caliper Kinase Assay: The analyses were performed in U-bottom 384-well plates. The final assay volume was 30 μl prepared from 15 μl additions of enzyme and substrates (fluoresceinated peptide and ATP) and test compounds in assay buffer (20 mM HEPES pH 7.4, 10 mM MgCl2, 0.015% Brij35 and 4 mM DTT). The reaction was initiated by the combination of purified protein kinase with substrates and test …
T1 sequence (P49116 whole entry): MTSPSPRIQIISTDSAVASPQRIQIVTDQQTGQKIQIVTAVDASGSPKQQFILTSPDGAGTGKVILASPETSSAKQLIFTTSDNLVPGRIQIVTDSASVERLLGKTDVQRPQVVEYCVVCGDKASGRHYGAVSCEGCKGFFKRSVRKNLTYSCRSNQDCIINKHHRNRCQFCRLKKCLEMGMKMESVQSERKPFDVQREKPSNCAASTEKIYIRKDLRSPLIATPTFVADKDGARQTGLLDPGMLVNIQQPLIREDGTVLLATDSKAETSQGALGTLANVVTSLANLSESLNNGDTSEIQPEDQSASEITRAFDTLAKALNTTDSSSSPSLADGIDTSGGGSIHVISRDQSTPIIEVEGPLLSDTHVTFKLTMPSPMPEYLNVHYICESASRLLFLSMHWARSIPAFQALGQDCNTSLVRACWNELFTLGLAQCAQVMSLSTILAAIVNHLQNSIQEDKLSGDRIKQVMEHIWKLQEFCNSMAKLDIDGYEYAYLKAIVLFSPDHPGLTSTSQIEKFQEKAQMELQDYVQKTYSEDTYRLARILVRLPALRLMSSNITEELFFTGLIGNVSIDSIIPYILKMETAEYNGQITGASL

Sequences of proteins named here, by UniProt entry; tags and fusion partners are left off.
UniProt P51617, whole entry: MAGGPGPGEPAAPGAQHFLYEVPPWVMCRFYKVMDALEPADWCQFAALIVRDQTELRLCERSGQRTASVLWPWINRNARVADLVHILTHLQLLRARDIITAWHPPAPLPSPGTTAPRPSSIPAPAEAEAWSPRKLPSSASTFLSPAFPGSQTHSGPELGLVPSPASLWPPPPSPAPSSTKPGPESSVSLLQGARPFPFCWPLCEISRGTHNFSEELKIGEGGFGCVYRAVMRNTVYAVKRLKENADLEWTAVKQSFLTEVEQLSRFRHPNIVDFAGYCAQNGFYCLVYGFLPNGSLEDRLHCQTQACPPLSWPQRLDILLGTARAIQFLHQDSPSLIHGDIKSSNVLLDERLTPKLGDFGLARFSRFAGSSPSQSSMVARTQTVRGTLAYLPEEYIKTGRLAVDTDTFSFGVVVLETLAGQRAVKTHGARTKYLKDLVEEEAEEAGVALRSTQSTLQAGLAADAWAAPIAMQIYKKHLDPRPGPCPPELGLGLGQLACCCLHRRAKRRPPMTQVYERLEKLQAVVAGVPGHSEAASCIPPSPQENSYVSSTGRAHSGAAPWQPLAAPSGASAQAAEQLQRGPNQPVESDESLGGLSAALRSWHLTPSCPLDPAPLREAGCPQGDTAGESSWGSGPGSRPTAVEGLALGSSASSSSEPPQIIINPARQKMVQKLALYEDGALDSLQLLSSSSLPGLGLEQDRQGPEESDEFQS

[2] = molecular target: Interleukin-1 receptor-associated kinase 1 (Homo sapiens, UniProt P51617); assay: as above

Oc1nc(-c2cncnc2)nc2cccc(-c3ccccc3)c12.c1ccc(-c2cccc3nc(-c4cncnc4)nc(NCc4ccccn4)c23)cc1
IC50 [1]: 50 µM | IC50 [2]: 50 µM
